{
  "sequences": {"note": "Protein sequences, listed by entry. Tags and fused reporters are not part of them.", "UniProt P21554, whole entry, species assumed": "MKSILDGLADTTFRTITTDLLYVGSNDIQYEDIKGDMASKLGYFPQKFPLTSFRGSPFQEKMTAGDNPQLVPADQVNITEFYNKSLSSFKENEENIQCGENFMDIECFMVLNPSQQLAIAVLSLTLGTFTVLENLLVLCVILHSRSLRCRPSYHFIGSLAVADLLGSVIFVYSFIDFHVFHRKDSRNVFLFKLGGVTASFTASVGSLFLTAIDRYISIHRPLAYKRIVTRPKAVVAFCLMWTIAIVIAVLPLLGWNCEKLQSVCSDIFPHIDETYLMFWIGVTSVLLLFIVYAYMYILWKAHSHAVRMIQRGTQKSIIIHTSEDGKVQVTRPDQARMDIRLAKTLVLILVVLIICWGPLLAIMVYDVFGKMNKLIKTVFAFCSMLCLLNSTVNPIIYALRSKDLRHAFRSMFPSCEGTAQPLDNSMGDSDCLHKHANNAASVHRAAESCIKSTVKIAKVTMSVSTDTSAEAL"},
  "source": "paper PMC3171605",
  "about": "(Bioorganic & medicinal chemistry letters, 2011)",
  "target": "CB1 (Homo sapiens, UniProt P21554)",
  "assay": "Radioligand displacement of [3H]1",
  "format": "binding",
  "data": [
    {"smiles": "Cc1c(C(=O)NCC2CCC(CNS(N)(=O)=O)CC2)nn(-c2ccc(Cl)cc2Cl)c1-c1ccc(Cl)cc1", "note": "(mixture of isomers) [Compound 21]", "values": [
      {"measurement": "Ki", "result": "~10", "unit": "nM"}
    ]}
  ]
}
